This is an account of results in ChEMBL document CHEMBL1146689, “The design and synthesis of a novel quinolizidine template for potent opioid and opioid receptor-like (ORL1, NOP) receptor ligands” (2004).

Amino acid sequences for entries named in this document (tags omitted).
UniProt P41146, whole entry: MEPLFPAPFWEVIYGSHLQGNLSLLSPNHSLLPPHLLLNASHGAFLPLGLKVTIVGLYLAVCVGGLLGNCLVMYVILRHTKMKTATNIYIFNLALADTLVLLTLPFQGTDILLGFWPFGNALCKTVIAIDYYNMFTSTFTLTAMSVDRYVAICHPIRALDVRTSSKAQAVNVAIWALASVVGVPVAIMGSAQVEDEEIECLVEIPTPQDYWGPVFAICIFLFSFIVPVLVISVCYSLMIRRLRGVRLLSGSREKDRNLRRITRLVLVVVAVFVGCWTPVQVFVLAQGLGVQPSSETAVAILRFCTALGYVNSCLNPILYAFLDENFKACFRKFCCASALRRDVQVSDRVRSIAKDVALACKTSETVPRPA
UniProt P35372, whole entry: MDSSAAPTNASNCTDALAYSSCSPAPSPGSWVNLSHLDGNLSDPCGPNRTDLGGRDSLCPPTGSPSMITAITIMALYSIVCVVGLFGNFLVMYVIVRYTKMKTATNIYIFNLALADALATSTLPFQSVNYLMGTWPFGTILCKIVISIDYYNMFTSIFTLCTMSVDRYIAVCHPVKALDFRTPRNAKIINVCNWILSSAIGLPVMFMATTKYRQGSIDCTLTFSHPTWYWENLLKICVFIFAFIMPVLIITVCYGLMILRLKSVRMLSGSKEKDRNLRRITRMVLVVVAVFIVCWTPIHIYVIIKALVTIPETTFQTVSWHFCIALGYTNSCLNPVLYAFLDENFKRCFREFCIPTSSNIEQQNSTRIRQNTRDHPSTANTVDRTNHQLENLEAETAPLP
UniProt P41145, whole entry: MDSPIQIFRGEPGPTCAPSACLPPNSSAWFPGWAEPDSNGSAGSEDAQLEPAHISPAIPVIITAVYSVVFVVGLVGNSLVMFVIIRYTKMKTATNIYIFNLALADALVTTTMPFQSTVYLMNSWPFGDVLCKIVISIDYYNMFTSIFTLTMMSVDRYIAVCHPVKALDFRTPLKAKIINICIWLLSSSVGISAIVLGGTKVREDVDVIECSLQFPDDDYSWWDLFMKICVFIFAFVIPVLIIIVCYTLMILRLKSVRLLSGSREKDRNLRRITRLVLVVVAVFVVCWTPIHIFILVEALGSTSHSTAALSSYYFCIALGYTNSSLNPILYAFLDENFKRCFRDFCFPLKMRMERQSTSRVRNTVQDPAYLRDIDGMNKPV

Assay [1] concerns the target Nociceptin receptor (Homo sapiens) (UniProt P41146). Put plainly: Stimulation of [35S]GTP-gamma-S, binding to human NOP receptor in cell membrane.
Assay [2] has as its target Mu-type opioid receptor (Homo sapiens) (UniProt P35372). Put plainly: Stimulation of [35S]GTP-gamma-S, binding to human opioid receptor mu 1 in cell membrane. On the technique in general: GTPγS is a poorly hydrolysed GTP analogue; its binding reports G protein activation.
Assay [3] has as its target Kappa-type opioid receptor (Homo sapiens) (UniProt P41145). Kind of assay: Stimulation of [35S]GTP-gamma-S, binding to human opioid receptor kappa 1 in cell membrane.

Regarding `Oc1nc2ccccc2n1[C@@H]1CCN2[C@H](CCC[C@H]2c2ccccc2)C1`, the Stimulation in assay [1] came to 89%; in assay [2], 55%; in assay [3], 100%.
Regarding `CCn1c(=O)n([C@@H]2CCN3[C@H](CCC[C@H]3c3ccccc3)C2)c2ccccc21`, the Stimulation in assay [1] was 87%; in assay [3], 79%.
